In patent US7452885B2, “Amino-5-(6-membered)heteroarylimidazolone compounds and the use thereof for β-secretase modulation” (Wyeth, priority 2005, dated 2008) one finds IC50 data, which are given here for seven compounds.

The chains behind the UniProt entries cited, without tags or fusion partners. Residues count along the entry.
UniProt P56817, 46-501 limits assumed: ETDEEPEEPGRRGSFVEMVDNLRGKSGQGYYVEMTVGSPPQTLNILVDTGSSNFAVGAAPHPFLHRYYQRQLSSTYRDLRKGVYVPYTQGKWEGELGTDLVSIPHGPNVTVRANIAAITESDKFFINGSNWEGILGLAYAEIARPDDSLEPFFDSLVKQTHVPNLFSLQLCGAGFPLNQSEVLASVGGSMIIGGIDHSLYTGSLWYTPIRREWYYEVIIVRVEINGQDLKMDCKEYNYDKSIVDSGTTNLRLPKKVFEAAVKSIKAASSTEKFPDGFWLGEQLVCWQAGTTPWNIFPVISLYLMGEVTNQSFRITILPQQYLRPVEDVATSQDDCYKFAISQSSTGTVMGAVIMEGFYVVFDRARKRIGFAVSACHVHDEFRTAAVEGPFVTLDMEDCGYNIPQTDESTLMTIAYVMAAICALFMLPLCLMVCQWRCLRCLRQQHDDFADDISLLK

The target in the assay is human BACE1 (Homo sapiens, UniProt P56817). Briefly: Fluorescent kinetic assay, BACE-1 (Example 114). Particulars: read-out: BACE-1 (IC50 μM); 10 nM human BACE1, 25 μM substrate WABC-6, 50 mM Na-Acetate pH 4.5, room temperature. Format: biochemical.

Regarding `CN1C(=O)C(c2ccncc2)(c2cccc(-c3ccccc3)c2)N=C1N` (stereo not shown), the IC50 (commonly the point on the concentration scale where inhibition reaches its midpoint) fell in the range of 0.11 to 1 µM.
For the compound `COc1ncc(C2(c3cccc(-c4cncnc4)c3)N=C(N)N(C)C2=O)cn1` (stereo not shown), the IC50 is 0.11 to 1 µM.
The value for `COc1ncc(C2(c3cccc(-c4cccnc4F)c3)N=C(N)N(C)C2=O)cn1` (stereo not shown) was 0.01 to 0.1 µM; that for `COc1cccc(C2(c3ccncc3)N=C(N)N(C)C2=O)c1` (stereo not shown) was greater than 1 µM; that for `CC(C)c1cc(C2(c3cccc(-c4cc(F)ccc4F)c3)N=C(N)N(C)C2=O)ccn1` (stereo not shown) was 0.11 to 1 µM.
Then `CN1C(=O)C(c2ccncc2)(c2cccc(Br)c2)N=C1N` (stereo not shown), with greater than 1 µM; and `CCc1cc(C2(c3ccc(F)c(-c4cnccc4F)c3)N=C(N)N(C)C2=O)cc(CC)n1` (stereo not shown), with 0.01 to 0.1 µM.
